What was measured:
Mdm2 (1-125) = biological target: T1, Mdm2 (1-125) (Homo sapiens, UniProt Q00987); experiment: competitive fluorescence polarization/anisotropy, apparent Kd against Mdm2; format: binding; details: comparison of apparent Kds
T1 construct: Mdm2 (1-125) and Mdm4 (1-125) were ligated into the GST fusion expression vector pGEX-6P-1; GST (N, cleaved yes); made in house; host or cells: E. coli BL21 DE3
Description: The cells expressing the GST fusion constructs were grown in LB medium at 37° C. to an OD600 of ˜0.6 and induction was started with 1 mM IPTG and carried out overnight at room temperature. Cells were harvested by centrifugation and the cell pellets were re-suspended in 50 mM Tris pH 8.0, 10% sucrose and were then sonicated. The sonicated sample was centrifuged for 60 mins at 17,000 g at 4° C. […] The column was then further washed by 6 volumes of wash buffer. Mdm2 and Mdm4 were then purified from the column by cleavage with Precission (GE Lifesciences) protease. 10 units of precission protease, in one column volume of PBS with 1 mM DTT buffer, were injected onto the column. The cleavage reaction was allowed to proceed overnight at 4° C. […] Protein fractions were analyzed with SDS page gel and concentrated using a Centricon (3.5 kDa MWCO) concentrator, Millipore. […] Protein fractions were analyzed with SDS page gel and concentrated using a Centricon (3.5 kDa MWCO) concentrator from Millipore.
Apparent Kd values were determined for a variety of molecules via competitive fluorescence anisotropy experiments. […] Apparent Kd values were determined by fitting the experimental data to the equations shown below:
[L]st and [L]t denote labelled ligand and total unlabelled ligand input concentrations, respectively. […] Readings were carried out with a Envision Multilabel Reader (PerkinElmer). […]

By UniProt entry, the sequences of proteins in these tests, tags left out. Residues count along the entry.
UniProt Q00987, 1-125: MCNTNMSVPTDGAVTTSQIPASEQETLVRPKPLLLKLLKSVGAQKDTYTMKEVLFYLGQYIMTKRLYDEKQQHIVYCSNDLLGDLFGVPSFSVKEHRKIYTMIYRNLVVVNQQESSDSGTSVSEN
UniProt Q00987, 7-134: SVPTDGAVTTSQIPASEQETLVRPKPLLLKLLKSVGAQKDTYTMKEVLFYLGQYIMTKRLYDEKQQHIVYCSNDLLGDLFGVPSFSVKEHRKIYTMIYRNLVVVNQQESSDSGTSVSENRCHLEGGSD

[1] = biological target: T2, interaction of p53 with Mdm2 in living BHK cells (Homo sapiens, UniProt Q00987); experiment: F2H co-localization assay p53:Mdm2; format: cell-based; details: live cell observations, FIG. 7
T2 construct: the prey is a fusion of either Mdm2 (7-134) or Mdm4 (1-129) with RFP; host or cells: transgenic BHK cells with lac operator repeats

In the case of `COc1ccc(C2=N[C@@H](c3ccc(Cl)cc3)[C@@H](c3ccc(Cl)cc3)N2C(=O)N2CCNC(=O)C2)c(OC(C)C)c1` [nutlin, reference compound], the “preference between Mdm2 and Mdm4 in binding” value (Mdm2 (1-125)) is reported as “preference for Mdm2 over Mdm4” and the “time to dissociation of Mdm2 from p53” value [1] is reported as ≤ 60 min.
